Patent US20110046887A1, “METHOD FOR ASSESSING PATHWAY PRODUCT LEVELS” (priority 2006, published 2011)

Assay: Bayesian deconvolution of 24-hr pituitary-hormone concentration profiles (secretion and elimination parameters)
Format: in vivo, human
Details: for Slow Half-Life: 24-hr 10-min sampled profile
Method: The experimentalist requires an automated procedure by which to simultaneously detect pulse times and estimate secretion/kinetic features. […] In each case, discrete blood sampling (i.e., the withdrawal lasting 5-10 sec) was performed every 10 min for 24 hr. [Integrative sampling (continuous withdrawal) yields a time-integrated or flattened version of the impulse, thereby underestimating absolute peak values and overestimating interpulse valleys.] If the set (Y1, Y2, . . . , Yn) denotes observed hormone concentrations, n would be 145 for 10-min sampling over 24 hr. […] One would like to find values (a,b) so that, for a specified probability, e.g., 0.95, one can make the following probability statement:
Assuming that pulse-onset times are given by ℑm={T^1, T^2 . . . , T^m}, Keenan and Veldhuis give a model to estimate secretory dynamics conditional on pulse times (Keenan & Veldhuis, 1998; Keenan et al., 2000; Keenan et al., 1998). The primary components are basal and pulsatile secretion, a flexible secretory-burst shape, random effects on burst mass, biexponential elimination kinetics and combined experimental uncertainty in sample collection, processing and assay. We suppose that M, the amount of hormone secreted in the j^th burst (mass per unit distribution volume), is the sum of a finite amount of minimally available stores, a linear function of hormone accumulation over the preceding interpulse interval, and a random effect allowing for biological variability in individual burst mass:
In the present Bayesian approach, an a priori (prior) probability distribution is placed on the parameter space: Θ×ℑ, where ℑ={ℑN, ℑN-1, . . . , ℑp} in Eq. [16] and Θ denotes the parameter set in Eq. [14]. The prior density on Θ×ℑ is assumed to be a product: π×λ, with a uniform prior on Θ, π(θ)∝ to a Constant. The prior on ℑ is the Akaike Information Criterion (AIC) penalty for the number of pulse times m, λ(ℑm)∝exp(−m). […] Measured data Y=(Y1, Y2, . . . , Yn)′ are then incorporated via a likelihood function (Eq. [15]), resulting in the a posteriori (posterior) probability distribution on Θ×ℑ:
The algorithm of the present paper utilizes a mathematically justified procedure for simulating from the joint (Θ×ℑ) posterior distribution (Eq. [18]). The basic idea is that, for a given hormone concentration profile, one generates an array of (e.g. 100) simulations from the posterior distribution, which allows one then to make probabilistic statements about the parameters of pulse times, secretion and elimination.
total basal secretion as: n×β0, and total pulsatile as the difference. Repeated sampling of (θ,ℑm), and calculation of total pulsatile secretion (for each), produces a probability histogram approximating the posterior distribution for total pulsatile secretion, given an observed concentration profile. […] Specifically, in reference to Eq. [9]
Histograms are based on 100 simulations from the joint posterior distribution.

luteinizing hormone [LH]
Slow Half-Life (0.05 quantile of posterior distribution, ACTH, LH young, GH person): 1.9 h
Slow Half-Life (0.05 quantile of posterior distribution, LH older person (postmenopausal)): 0.317 h
Slow Half-Life (0.25 quantile of posterior distribution, ACTH, LH young, GH person): 1.92 h
Slow Half-Life (0.25 quantile of posterior distribution, LH older person (postmenopausal)): 0.35 h
Slow Half-Life (0.50 quantile of posterior distribution, ACTH, LH young, GH person): 1.93 h
Slow Half-Life (0.50 quantile of posterior distribution, LH older person (postmenopausal)): 0.433 h
Slow Half-Life (0.75 quantile of posterior distribution, ACTH, LH young, GH person): 2 h
Slow Half-Life (0.75 quantile of posterior distribution, LH older person (postmenopausal)): 1.43 h
Slow Half-Life (0.95 quantile of posterior distribution, ACTH, LH young, GH person): 2.08 h
Slow Half-Life (0.95 quantile of posterior distribution, LH older person (postmenopausal)): 2.25 h
half-lives (ACTH in a LH person, illustrative data sets): 118 min
